Amino acid sequences for entries named in this document (tags omitted). Residues count along the entry.
UniProt P35869, 11-848 limits assumed: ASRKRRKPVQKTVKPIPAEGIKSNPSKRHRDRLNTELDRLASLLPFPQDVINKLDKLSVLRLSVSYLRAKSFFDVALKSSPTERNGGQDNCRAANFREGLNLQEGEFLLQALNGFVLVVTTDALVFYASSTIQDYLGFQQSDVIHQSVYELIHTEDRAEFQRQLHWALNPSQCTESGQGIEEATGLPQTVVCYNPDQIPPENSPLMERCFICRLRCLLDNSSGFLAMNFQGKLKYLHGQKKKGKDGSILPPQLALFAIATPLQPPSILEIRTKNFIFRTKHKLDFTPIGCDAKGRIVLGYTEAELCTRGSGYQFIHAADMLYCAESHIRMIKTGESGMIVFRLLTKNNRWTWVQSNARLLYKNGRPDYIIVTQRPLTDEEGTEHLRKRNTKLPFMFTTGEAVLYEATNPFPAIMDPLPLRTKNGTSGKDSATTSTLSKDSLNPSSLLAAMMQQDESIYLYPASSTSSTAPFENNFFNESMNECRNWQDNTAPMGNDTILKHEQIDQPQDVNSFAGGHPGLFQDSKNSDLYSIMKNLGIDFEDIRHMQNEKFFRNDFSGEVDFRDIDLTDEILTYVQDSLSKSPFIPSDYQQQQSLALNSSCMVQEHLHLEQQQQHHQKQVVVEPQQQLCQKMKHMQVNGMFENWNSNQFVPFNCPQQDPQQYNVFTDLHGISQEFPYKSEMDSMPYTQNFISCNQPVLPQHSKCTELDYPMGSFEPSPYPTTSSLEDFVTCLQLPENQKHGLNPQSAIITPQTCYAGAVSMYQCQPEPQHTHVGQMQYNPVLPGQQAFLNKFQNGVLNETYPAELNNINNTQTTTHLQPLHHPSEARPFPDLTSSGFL

In patent US10981908B2, “Aryl hydrocarbon receptor (AHR) modulator compounds” (PHENEX PHARMACEUTICALS AG, priority 2017, dated 2021):

Target: AhR (Homo sapiens, UniProt P35869)
Excerpt: AhR Direct Luciferase Reporter Assay in HepG2 Cells
A stable cell line (HepG2 CYP1A1-LUC) was used in which part of the promoter region of the human CYP1A1 gene is stably integrated into the genome of human HepG2 hepatocytes (DSZM #ACC 180) in front of a Photinus pyralis Firefly Luciferase gene. A 1210 bp fragment comprising part of the human CYP1A1 promoter was isolated via SacI and BgIII restriction digestion from Lightswitch Clone S714555 (SwitchGearGenomics) and inserted between the SacI and BgIII sites in pGL4.30 (Promega #E8481) in front of the Firefly Luciferase gene. […]
In typical reporter assays performed with this cell line, cells are grown in 96-well plates and AhR modulators are titrated into the growth medium in serial dilutions in RPMI-1640 Medium (Sigma #R7509) supplemented with 8,6% fetal calf serum (Sigma #F7524) and containing either no exogenous AhR agonist or 10 nM of the potent AhR agonist VAF347 (Calbiochem #182690). Cells are further cultivated for 18 hours and luciferase activities are determined from extracts of cells in buffers containing D-Luciferine and ATvP using a LUMIstar Optima microplate Luminometer from BMG Labtech.

IC50: < 100 nM
Compound: Cn1ncnc1C(=O)Nc1ccc2cc(-c3cccc(C(F)F)c3)[nH]c2n1
